Source: ChEMBL document CHEMBL3393025, “Discovery of dual leucine zipper kinase (DLK, MAP3K12) inhibitors with activity in neurodegeneration models” (J Med Chem, 2015)

Key:
[1] = molecular target: T1, Mitogen-activated protein kinase kinase kinase 12 (Homo sapiens, UniProt Q12852); assay: Inhibition of DLK (unknown origin)
T1 sequence (Q12852 whole entry): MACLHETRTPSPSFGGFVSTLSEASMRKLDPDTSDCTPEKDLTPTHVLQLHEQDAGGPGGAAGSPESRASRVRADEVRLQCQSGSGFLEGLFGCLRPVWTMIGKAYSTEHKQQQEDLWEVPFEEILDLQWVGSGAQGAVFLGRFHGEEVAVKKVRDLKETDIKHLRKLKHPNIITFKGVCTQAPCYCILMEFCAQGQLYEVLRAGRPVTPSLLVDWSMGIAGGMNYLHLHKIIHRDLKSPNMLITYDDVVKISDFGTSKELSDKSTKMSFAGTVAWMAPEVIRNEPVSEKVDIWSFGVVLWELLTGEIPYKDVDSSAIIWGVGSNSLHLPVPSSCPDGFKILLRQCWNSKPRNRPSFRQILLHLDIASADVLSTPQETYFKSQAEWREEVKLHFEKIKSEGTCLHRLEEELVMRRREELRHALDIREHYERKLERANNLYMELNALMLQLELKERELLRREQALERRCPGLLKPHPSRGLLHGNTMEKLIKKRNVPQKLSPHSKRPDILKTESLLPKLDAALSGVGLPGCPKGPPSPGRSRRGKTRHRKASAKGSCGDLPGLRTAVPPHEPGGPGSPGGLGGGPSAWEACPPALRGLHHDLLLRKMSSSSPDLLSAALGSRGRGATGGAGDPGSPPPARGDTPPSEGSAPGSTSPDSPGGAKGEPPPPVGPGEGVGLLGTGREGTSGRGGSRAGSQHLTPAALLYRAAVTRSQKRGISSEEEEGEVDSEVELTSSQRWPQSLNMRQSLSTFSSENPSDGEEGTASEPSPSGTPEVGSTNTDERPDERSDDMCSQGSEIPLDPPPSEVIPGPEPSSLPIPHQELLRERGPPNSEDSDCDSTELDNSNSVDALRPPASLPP

[2] = molecular target: T1, Mitogen-activated protein kinase kinase kinase 12; assay: Inhibition of human DLK transfected in HEK293 cells assessed as JNK phosphorylation after 5.5 hrs by Hoechst-33342 staining-based assay; type: cell-based

SMILES: FC1(F)CCN(c2nc(Nc3cc(C(F)(F)F)ccn3)cc(C3CCNCC3)n2)C1
- pKi [1]: 8.70
- pIC50 [2]: 6.39

pIC50, pKi: −log10 of the molar value.
